SMILES strings stand for the structures. Bounds are passed on as bounds.

These results are taken from ChEMBL document CHEMBL2396650, “A potent small-molecule inhibitor of the MDM2-p53 interaction (MI-888) achieved complete and durable tumor regression in mice” (J Med Chem, 2013).

Holding throughout (format): ADME, Microsome
The test system of data set [1] is Liver microsomes. As to the kind of experiment: Half life in rat liver microsomes. The essentials:
(§1)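 Half-life determined by incubation in mouse, rat and human liver microsomes; T1/2 in minutes.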
A general note: Liver microsomes are a subcellular fraction often used to study metabolism.

Data set [2] relates to Liver. As to the kind of experiment: Half life in mouse liver microsomes. The essentials:
as §1

The test system of data set [3] is Liver microsomes. As to the kind of experiment: Half life in human liver microsomes. The essentials: as §1

On to `CC(C)(C)C[C@@H]1N[C@@H](C(=O)N[C@H]2C[C@H](NS(C)(=O)=O)C2)[C@H](c2cccc(Cl)c2F)[C@]12C(=O)Nc1cc(Cl)ccc12`, for which the t1/2 in data set [1] was greater than 1 h; in data set [2] it was greater than 1 h; in data set [3], 0.888 h.
